Assay results as given in patent US20070082942A1, “Prevention of hiv-1 infection by inhibition of rho-mediated reorganization and/or content alteration of cell membrane raft” (priority 2003, published 2007).

System: HIV-1 NL4-3
Experiment: Murine SCID-hu-PBMC model of HIV-1 infection
Format: in vivo, CB.17 SCID/SCID mice
Details: one week post-infection; FIG. 5D

## CC[C@H](C)C(=O)O[C@H]1C[C@@H](C)C=C2C=C[C@H](C)[C@H](CC[C@@H]3C[C@@H](O)CC(=O)O3)[C@H]21 [lovastatin]
  Average CD4+/CD45+ ratio: 51%
